Tested on: Mycobacterium smegmatis containing plasmid PMV261-Kana^R
Assay: Control group: growth (OD600) of Mycobacterium smegmatis carrying PMV261-Kana^R (no intein) in kanamycin medium
Conditions: 20 μM cisplatin, kanamycin 50 μg/mL plus hygromycin, 37° C., 100 h

SMILES: N.N.[Cl][Pt][Cl] [cisplatin]
- inhibition rate of growth of Mycobacterium smegmatis containing the control group plasmid (PMV261-Kana^R): 14%

Source: patent publication US20230392179A1 (SOOCHOW UNIVERSITY, priority 2021, published 2023)
